Source: patent US20070036775A1, “Method of modulating or examining Ku70 levels in cells” (priority 2001, published 2007)

Key:
HEK293T cells = test: UVC-irradiation-induced apoptosis in HEK293T cells, Hoechst staining; format: cell-based; conditions: HEK293T cells transfected with Ku70 construct, 200 J/m^2 UVC, 24 hours
Protocol: FIG. 2A: Ku70 suppressed STS-induced apoptosis in Hela cells. Hela cells (10^6 cells) were transfected with 0.5 μg pEGFP and 1.0 μg pCMV-2B (Vector), pCMV-2B-Ku70 (Ku70 wt), pCMV-2B-Ku701-535 (Ku701-535), or pCMV-2B-Ku70536-609 (Ku70536-609). One day following transfection, cells were treated with 200 nM STS and the number of apoptotic cells was counted as described in FIG. 1 after 24 hours of STS treatment. FIG. 2B: Ku70 suppressed UVC-induced apoptosis. HEK293T cells (10^6 cells) were transfected with 0.5 μg PEGFP and 1.0 μg pCMV-2B (Vector), pCMV-2B-Ku70 wt (Ku70 wt), or pCMV-2B-Ku70536-609 (Ku70536-609). One day following transfection, cells were exposed to 200 J/m^2 of UVC-irradiation. After 24 hours, apoptotic cells were counted as described in FIG. 1. […] Caspase activity was measured one day following transfection as described in Experimental Procedure. […] Caspase activity was assessed as described in Experimental Procedure. […] Cytochrome c released from mitochondria into cytosol was analyzed by subcellular fractionation followed by Western blot analysis of Cytochrome c (Cyt c) as well as mitochondrial FoF1-ATP-synthase subunit F1α (F1α) as described in Experimental Procedure.
FIG. 7A: Subcellular localization of Bax and Ku70. […] Control Group: Ku70 is detected both in the cytosol and the nucleus. Large proportion of Bax distributes in the cytosol and Bax is also detected in the nucleus. […]

Caspase = test: Bax-induced Caspase activation (DEVD-afc cleavage) in HEK293T cells; format: cell-based; conditions: one day following transfection
Protocol: FIG. 2A: Ku70 suppressed STS-induced apoptosis in Hela cells. Hela cells (10^6 cells) were transfected with 0.5 μg pEGFP and 1.0 μg pCMV-2B (Vector), pCMV-2B-Ku70 (Ku70 wt), pCMV-2B-Ku701-535 (Ku701-535), or pCMV-2B-Ku70536-609 (Ku70536-609). One day following transfection, cells were treated with 200 nM STS and the number of apoptotic cells was counted as described in FIG. 1 after 24 hours of STS treatment. FIG. 2B: Ku70 suppressed UVC-induced apoptosis. HEK293T cells (10^6 cells) were transfected with 0.5 μg PEGFP and 1.0 μg pCMV-2B (Vector), pCMV-2B-Ku70 wt (Ku70 wt), or pCMV-2B-Ku70536-609 (Ku70536-609). One day following transfection, cells were exposed to 200 J/m^2 of UVC-irradiation. After 24 hours, apoptotic cells were counted as described in FIG. 1. FIG. 2C: Ku70 suppressed Bax-induced Caspase activation. […] Caspase activity was measured one day following transfection as described in Experimental Procedure. […] Caspase activity was assessed as described in Experimental Procedure. […] Cytochrome c released from mitochondria into cytosol was analyzed by subcellular fractionation followed by Western blot analysis of Cytochrome c (Cyt c) as well as mitochondrial FoF1-ATP-synthase subunit F1α (F1α) as described in Experimental Procedure. […]

In the case of “Ku70: human full length Ku70, 70 kDa subunit of Ku-complex (609 amino acids), expressed from pCMV-2B plasmid”, the “effect on UVC-irradiation-induced cell death” value (HEK293T cells) is reported as “attenuated” and the “effect on Bax-induced Caspase activation” value (Caspase) is reported as “suppressed”.
